This data set can be described thus: Non-model pharmacokinetics in rabbits.

Results on one substance are retold here after patent US6476036B1, “Sodium salt of 3-(4-cinnamyl-1-piperazinyl)-imino-methyl rifamycin SV” (priority 1998, dated 2002).

Turning to “sodium salt of 3-(4-cinnamyl-1-piperazinyl)-iminomethyl rifamycin SV [T-11]”, the “maintenance of constant therapeutical concentrations in the organism” value was “about 100 hours”.
